Earlier results, collected in article PMC3953390.

Target: MLCK (UniProt Q15746)

Substance: calmodulin (from UniProt P0DP23)
- Kd: 1.1 nM
